Laboratory results: patent US8088763B2 (priority 2004, dated 2012)

Sequences of proteins named here, by UniProt entry; tags and fusion partners are left off.
UniProt P35372, whole entry, looked up: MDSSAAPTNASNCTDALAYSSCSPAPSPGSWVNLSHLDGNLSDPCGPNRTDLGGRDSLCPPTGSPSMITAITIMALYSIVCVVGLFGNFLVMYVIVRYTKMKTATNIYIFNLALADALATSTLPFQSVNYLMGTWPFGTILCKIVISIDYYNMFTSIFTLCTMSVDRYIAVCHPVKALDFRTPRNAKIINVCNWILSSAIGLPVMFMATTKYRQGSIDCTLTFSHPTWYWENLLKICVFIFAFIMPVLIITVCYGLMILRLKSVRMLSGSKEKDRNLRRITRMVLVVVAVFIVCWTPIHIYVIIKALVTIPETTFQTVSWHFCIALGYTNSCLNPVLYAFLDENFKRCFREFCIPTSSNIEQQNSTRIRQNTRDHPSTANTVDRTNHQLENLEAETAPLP

biological target: human μ-opiate receptor (Homo sapiens, UniProt P35372); test: μ-binding: displacement of [3H]-naloxone, receptor membrane preparation of CHO-K1 cells; conditions: 1 μM test compound; 1 nmol/l [3H]-naloxone

Compound | μ-binding, [1 μM], % inhibition [%]
COc1ccc(OC)c(CN(Cc2ccco2)C(=O)CCC(=O)NC2CCC(Cc3cccc(Cl)c3)(N(C)C)CC2)c1 (stereo not shown) | 60
CN(C)C1(Cc2cccc(Cl)c2)CCC(NC(=O)CCC(=O)N2CCC(C(=O)c3ccc(Cl)cc3)CC2)CC1 (stereo not shown) | 51
Cc1ccc(C(C)NC(=O)CCC(=O)NC2CCC(Cc3cccc(Cl)c3)(N(C)C)CC2)cc1 (stereo not shown) | 50
CN(C)C1(Cc2cccc(Cl)c2)CCC(NC(=O)CCC(=O)N(Cc2ccco2)Cc2ccccc2F)CC1 (stereo not shown) | 54
CN(C)C1(Cc2ccccc2)CCC(NC(=O)CCCC(=O)NC2CCCc3ccccc32)CC1 (stereo not shown) | 55
Cc1ccc(CC2(N(C)C)CCC(NC(=O)CCC(=O)NCCc3ccc(Cl)cc3)CC2)cc1 (stereo not shown) | 54
Cc1cccc(CC2(N(C)C)CCC(NC(=O)CCC(=O)NCc3ccc(Br)cc3F)CC2)c1 (stereo not shown) | 62
Cc1cccc(CC2(N(C)C)CCC(NC(=O)CCC(=O)NCCc3ccccc3Cl)CC2)c1 (stereo not shown) | 61
CN(C)C1(Cc2cccc(Cl)c2)CCC(NC(=O)CCC(=O)NC2CCc3ccccc32)CC1 (stereo not shown) | 50
CN(C)C1(Cc2cccc(Cl)c2)CCC(NC(=O)CCC(=O)NCc2ccc(F)c(Cl)c2)CC1 (stereo not shown) | 55
CN(C)C1(Cc2cccc(Cl)c2)CCC(NC(=O)CCC(=O)NC2CCCc3ccccc32)CC1 (stereo not shown) | 52
CCC(NC(=O)CCC(=O)NC1CCC(Cc2cccc(Cl)c2)(N(C)C)CC1)c1ccccc1 (stereo not shown) | 58
CN(C)C1(Cc2cccc(Cl)c2)CCC(NC(=O)CCC(=O)NCc2ccc(F)c(F)c2)CC1 (stereo not shown) | 57
Cc1ccc(CC2(N(C)C)CCC(NC(=O)CCC(=O)NCCc3ccccc3)CC2)cc1 (stereo not shown) | 66
CN(C)C1(Cc2cccc(Cl)c2)CCC(NC(=O)CCC(=O)NCc2cc(F)cc(C(F)(F)F)c2)CC1 (stereo not shown) | 57
CN(C)C1(Cc2cccc(Cl)c2)CCC(NC(=O)CCC(=O)NCCCc2ccccc2)CC1 (stereo not shown) | 59
CN(C)C1(Cc2cccc(Cl)c2)CCC(NC(=O)CCC(=O)NCCc2cccc(F)c2)CC1 (stereo not shown) | 57
CN(C)C1(Cc2ccc(Cl)cc2)CCC(NC(=O)CCC(=O)NCCc2ccccc2F)CC1 (stereo not shown) | 67
Cc1cccc(CC2(N(C)C)CCC(NC(=O)CCC(=O)N(C)Cc3ccccc3)CC2)c1 (stereo not shown) | 59
CC(NC(=O)CCC(=O)NC1CCC(Cc2cccc(Cl)c2)(N(C)C)CC1)c1ccc(F)cc1 (stereo not shown) | 59

Compound | μ-binding, [1 μM], % inhibition [%]
CC1CC(C)CN(C(=O)CCC(=O)NC2CCC(Cc3cccc(Cl)c3)(N(C)C)CC2)C1 (stereo not shown) | 56
Cc1ccc(CC2(N(C)C)CCC(NC(=O)CCC(=O)NCCc3ccccc3F)CC2)cc1 (stereo not shown) | 90
Cc1cccc(CC2(N(C)C)CCC(NC(=O)CCC(=O)N3CCC(C(=O)c4ccc(Cl)cc4)CC3)CC2)c1 (stereo not shown) | 56
CC(CCc1ccccc1)NC(=O)CCC(=O)NC1CCC(Cc2cccc(Cl)c2)(N(C)C)CC1 (stereo not shown) | 62
COc1ccc(N2CCN(C(=O)CCCC(=O)NC3CCC(Cc4ccccc4)(N(C)C)CC3)CC2)c(OC)c1 (stereo not shown) | 58
CN(C)C1(Cc2cccc(Cl)c2)CCC(NC(=O)CCC(=O)NCCc2cccc(C(F)(F)F)c2)CC1 (stereo not shown) | 56
Cc1cccc(CC2(N(C)C)CCC(NC(=O)CCC(=O)N(Cc3ccco3)Cc3ccccc3F)CC2)c1 (stereo not shown) | 62
Cc1cccc(CC2(N(C)C)CCC(NC(=O)CCC(=O)N(CCO)Cc3ccccc3)CC2)c1 (stereo not shown) | 50
CN(C)C1(Cc2cccc(Cl)c2)CCC(NC(=O)CCC(=O)NCCSCc2c(Cl)cccc2Cl)CC1 (stereo not shown) | 57
CN(C)C1(Cc2cccc(Cl)c2)CCC(NC(=O)CCC(=O)N2CCN(c3ccccc3F)CC2)CC1 (stereo not shown) | 73
Cc1cccc(CC2(N(C)C)CCC(NC(=O)CCC(=O)NC3CCc4ccccc43)CC2)c1 (stereo not shown) | 64
CN(C)C1(Cc2cccc(Cl)c2)CCC(NC(=O)CCC(=O)NC2Cc3ccccc3C2)CC1 (stereo not shown) | 64
Cc1cccc(CC2(N(C)C)CCC(NC(=O)CCC(=O)NCCc3ccc(Cl)c(Cl)c3)CC2)c1 (stereo not shown) | 77
Cc1cccc(CC2(N(C)C)CCC(NC(=O)CCC(=O)NCc3ccccc3F)CC2)c1 (stereo not shown) | 50
N-[4-dimethylamino-4-(3-methyl-benzyl)- cyclohexyl]-N′-(1-naplithalen-1-yl-ethyl)- succinamide | 65
CN(C)C1(Cc2cccc(Cl)c2)CCC(NC(=O)CCC(=O)N(CCC#N)Cc2ccccc2)CC1 (stereo not shown) | 57
CN(C)C1(Cc2cccc(Cl)c2)CCC(NC(=O)CCC(=O)NC2CCCCCCC2)CC1 (stereo not shown) | 50
Cc1cccc(CC2(N(C)C)CCC(NC(=O)CCC(=O)NCCc3c[nH]c4ccccc34)CC2)c1 (stereo not shown) | 59
Cc1cccc(CC2(N(C)C)CCC(NC(=O)CCC(=O)NCC(C)c3ccc(Cl)cc3)CC2)c1 (stereo not shown) | 58
Cc1cccc(CC2(N(C)C)CCC(NC(=O)CCC(=O)NCCc3ccccc3)CC2)c1 (stereo not shown) | 60

Compound | μ-binding, [1 μM], % inhibition [%]
CN(C)C1(Cc2cccc(Cl)c2)CCC(NC(=O)CCC(=O)NCc2ccc(Cl)c(Cl)c2)CC1 (stereo not shown) | 80
Cc1cccc(CC2(N(C)C)CCC(NC(=O)CCC(=O)NCc3cccc(C)c3C)CC2)c1 (stereo not shown) | 69
CCOc1ccccc1CCNC(=O)CCC(=O)NC1CCC(Cc2cccc(Cl)c2)(N(C)C)CC1 (stereo not shown) | 50
Cc1ccc(Cl)cc1N1CCN(C(=O)CCC(=O)NC2CCC(Cc3cccc(Cl)c3)(N(C)C)CC2)CC1 (stereo not shown) | 51
Cc1cccc(CC2(N(C)C)CCC(NC(=O)CCC(=O)N3CC=C(c4ccccc4)CC3)CC2)c1 (stereo not shown) | 54
Cc1cccc(CC2(N(C)C)CCC(NC(=O)CCC(=O)NCCSCc3ccccc3)CC2)c1 (stereo not shown) | 70
CN(CCCNC(=O)CCC(=O)NC1CCC(Cc2cccc(Cl)c2)(N(C)C)CC1)c1ccccc1 (stereo not shown) | 54
CN(C)C1(Cc2cccc(Cl)c2)CCC(NC(=O)CCC(=O)NCCc2ccccc2F)CC1 (stereo not shown) | 59
CCN(Cc1ccccc1)C(=O)CCC(=O)NC1CCC(Cc2cccc(Cl)c2)(N(C)C)CC1 (stereo not shown) | 61
Cc1cccc(CC2(N(C)C)CCC(NC(=O)CCC(=O)N3CCN(c4cc(Cl)ccc4C)CC3)CC2)c1 (stereo not shown) | 67
Cc1ccc(CC2(N(C)C)CCC(NC(=O)CCC(=O)NCCc3ccccc3Cl)CC2)cc1 (stereo not shown) | 67
CN(C)C1(Cc2cccc(Cl)c2)CCC(NC(=O)CCC(=O)NCc2ccc(F)c(C(F)(F)F)c2)CC1 (stereo not shown) | 54
CN(C)C1(Cc2ccccc2)CCC(NC(=O)CCCC(=O)NCCc2ccccc2)CC1 (stereo not shown) | 72
CN(C)C1(Cc2cccc(Cl)c2)CCC(NC(=O)CCC(=O)NCCc2ccccc2)CC1 (stereo not shown) | 50
Cc1ccc(CC2(N(C)C)CCC(NC(=O)CCC(=O)N(CCC#N)Cc3ccccc3)CC2)cc1 (stereo not shown) | 66
CN(C)C1(Cc2cccc(Cl)c2)CCC(NC(=O)CCC(=O)NCCc2ccc(Cl)cc2Cl)CC1 (stereo not shown) | 52
CN(C)C1(Cc2cccc(Cl)c2)CCC(NC(=O)CCC(=O)NCCc2cccs2)CC1 (stereo not shown) | 60
CCOc1ccccc1CCNC(=O)CCC(=O)NC1CCC(Cc2cccc(C)c2)(N(C)C)CC1 (stereo not shown) | 68
